Data on one substance can be found in patent US20210206861A1.

By UniProt entry, the sequences of proteins in these tests, tags left out. Residues count along the entry.
UniProt P05112, 25-153 limits assumed: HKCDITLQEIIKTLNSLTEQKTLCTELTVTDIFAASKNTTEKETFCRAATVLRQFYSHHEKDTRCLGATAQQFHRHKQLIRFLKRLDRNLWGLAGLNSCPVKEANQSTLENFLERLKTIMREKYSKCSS

The assay addresses IL-4 (purchased from R&D systems) (UniProt P05112). As to the kind of experiment: cell-based or functional assay.

Substance “IL-4R-ECD-hFc (from UniProt P24394 26-232) (Fc fusion)” gave an IC50 of inhibition of IL-4-induced TF-1 cell proliferation of 0.28 µg/mL.
